Source: ChEMBL document CHEMBL5260854, “Discovery of Novel TRPM8 Blockers Suitable for the Treatment of Somatic and Ocular Painful Conditions: A Journey through pKa and LogD Modulation” (J Med Chem, 2021)
Activity calls are given as the source filed them. The calls are words filed in the database; no cut-off is given here.

Protein sequences, listed by entry. Tags and fused reporters are not part of them.
UniProt Q8NER1, whole entry: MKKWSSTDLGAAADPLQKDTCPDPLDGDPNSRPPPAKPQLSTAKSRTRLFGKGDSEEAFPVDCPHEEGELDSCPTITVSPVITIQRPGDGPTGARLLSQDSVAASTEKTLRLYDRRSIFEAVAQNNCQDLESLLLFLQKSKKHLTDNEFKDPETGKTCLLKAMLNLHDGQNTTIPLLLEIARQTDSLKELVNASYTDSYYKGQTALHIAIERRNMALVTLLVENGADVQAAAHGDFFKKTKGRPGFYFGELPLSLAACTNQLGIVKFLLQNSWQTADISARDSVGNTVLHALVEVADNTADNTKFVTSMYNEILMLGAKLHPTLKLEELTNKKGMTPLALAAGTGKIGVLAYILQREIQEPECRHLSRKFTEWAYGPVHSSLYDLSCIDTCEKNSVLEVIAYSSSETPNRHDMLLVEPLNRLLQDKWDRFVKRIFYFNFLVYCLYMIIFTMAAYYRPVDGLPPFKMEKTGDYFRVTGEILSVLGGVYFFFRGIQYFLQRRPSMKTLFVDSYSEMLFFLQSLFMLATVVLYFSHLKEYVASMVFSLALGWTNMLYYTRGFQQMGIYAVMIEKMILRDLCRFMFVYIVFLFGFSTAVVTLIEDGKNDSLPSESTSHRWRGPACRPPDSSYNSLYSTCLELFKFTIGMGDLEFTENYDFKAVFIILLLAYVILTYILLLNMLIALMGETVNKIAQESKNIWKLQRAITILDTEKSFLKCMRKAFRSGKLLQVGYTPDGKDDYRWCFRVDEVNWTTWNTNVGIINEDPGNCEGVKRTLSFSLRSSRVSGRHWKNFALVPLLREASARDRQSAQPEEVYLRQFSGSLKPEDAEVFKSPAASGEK
UniProt Q9HBA0, whole entry: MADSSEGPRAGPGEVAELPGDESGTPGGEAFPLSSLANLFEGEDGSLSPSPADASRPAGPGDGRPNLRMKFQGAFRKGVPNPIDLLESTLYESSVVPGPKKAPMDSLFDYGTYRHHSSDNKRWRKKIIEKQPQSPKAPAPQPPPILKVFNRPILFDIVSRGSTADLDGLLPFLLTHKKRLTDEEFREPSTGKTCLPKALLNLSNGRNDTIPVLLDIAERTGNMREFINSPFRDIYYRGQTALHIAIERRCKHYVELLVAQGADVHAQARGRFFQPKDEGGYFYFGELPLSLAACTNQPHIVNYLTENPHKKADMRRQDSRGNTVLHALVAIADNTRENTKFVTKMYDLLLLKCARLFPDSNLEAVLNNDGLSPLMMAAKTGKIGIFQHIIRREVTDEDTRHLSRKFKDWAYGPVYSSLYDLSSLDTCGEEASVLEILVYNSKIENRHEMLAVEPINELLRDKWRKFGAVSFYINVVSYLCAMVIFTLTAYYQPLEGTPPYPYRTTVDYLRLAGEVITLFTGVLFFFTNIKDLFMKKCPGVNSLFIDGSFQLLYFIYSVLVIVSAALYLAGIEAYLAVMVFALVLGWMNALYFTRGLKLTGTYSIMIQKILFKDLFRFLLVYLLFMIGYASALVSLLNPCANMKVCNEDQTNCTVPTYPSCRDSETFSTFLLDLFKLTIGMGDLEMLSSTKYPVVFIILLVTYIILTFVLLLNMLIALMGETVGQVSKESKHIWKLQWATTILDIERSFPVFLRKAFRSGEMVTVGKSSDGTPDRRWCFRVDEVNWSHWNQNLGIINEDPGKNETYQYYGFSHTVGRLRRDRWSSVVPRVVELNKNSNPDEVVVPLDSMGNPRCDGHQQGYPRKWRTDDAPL
UniProt O75762, whole entry: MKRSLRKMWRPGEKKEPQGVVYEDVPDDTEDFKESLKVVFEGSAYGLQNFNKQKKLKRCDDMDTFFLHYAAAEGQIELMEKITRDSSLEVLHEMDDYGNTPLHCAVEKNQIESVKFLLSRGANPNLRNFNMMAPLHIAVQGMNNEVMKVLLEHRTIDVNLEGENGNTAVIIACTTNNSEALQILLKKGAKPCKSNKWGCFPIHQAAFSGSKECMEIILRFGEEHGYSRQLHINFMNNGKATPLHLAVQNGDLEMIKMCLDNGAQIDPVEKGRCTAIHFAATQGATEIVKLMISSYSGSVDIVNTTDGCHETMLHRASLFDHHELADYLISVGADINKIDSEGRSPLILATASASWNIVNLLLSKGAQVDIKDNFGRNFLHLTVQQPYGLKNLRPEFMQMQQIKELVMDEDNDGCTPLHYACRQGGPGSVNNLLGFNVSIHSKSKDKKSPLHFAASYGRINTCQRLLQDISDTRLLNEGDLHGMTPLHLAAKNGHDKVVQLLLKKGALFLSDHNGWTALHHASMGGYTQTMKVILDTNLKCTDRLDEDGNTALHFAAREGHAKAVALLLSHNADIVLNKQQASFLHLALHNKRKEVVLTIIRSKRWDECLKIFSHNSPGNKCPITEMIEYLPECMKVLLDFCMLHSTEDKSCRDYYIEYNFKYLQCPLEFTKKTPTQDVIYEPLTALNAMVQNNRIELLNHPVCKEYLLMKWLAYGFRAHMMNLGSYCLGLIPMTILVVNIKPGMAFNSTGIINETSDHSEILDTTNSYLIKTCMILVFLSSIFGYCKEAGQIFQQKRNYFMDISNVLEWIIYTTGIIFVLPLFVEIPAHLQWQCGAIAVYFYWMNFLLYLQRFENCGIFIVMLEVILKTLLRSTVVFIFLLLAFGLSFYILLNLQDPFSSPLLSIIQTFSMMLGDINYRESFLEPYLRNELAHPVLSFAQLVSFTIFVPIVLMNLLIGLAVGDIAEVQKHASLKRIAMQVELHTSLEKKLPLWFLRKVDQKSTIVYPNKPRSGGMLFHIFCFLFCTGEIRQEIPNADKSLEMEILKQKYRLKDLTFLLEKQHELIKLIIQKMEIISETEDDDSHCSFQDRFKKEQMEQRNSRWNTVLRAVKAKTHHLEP
UniProt Q15858, whole entry, looked up: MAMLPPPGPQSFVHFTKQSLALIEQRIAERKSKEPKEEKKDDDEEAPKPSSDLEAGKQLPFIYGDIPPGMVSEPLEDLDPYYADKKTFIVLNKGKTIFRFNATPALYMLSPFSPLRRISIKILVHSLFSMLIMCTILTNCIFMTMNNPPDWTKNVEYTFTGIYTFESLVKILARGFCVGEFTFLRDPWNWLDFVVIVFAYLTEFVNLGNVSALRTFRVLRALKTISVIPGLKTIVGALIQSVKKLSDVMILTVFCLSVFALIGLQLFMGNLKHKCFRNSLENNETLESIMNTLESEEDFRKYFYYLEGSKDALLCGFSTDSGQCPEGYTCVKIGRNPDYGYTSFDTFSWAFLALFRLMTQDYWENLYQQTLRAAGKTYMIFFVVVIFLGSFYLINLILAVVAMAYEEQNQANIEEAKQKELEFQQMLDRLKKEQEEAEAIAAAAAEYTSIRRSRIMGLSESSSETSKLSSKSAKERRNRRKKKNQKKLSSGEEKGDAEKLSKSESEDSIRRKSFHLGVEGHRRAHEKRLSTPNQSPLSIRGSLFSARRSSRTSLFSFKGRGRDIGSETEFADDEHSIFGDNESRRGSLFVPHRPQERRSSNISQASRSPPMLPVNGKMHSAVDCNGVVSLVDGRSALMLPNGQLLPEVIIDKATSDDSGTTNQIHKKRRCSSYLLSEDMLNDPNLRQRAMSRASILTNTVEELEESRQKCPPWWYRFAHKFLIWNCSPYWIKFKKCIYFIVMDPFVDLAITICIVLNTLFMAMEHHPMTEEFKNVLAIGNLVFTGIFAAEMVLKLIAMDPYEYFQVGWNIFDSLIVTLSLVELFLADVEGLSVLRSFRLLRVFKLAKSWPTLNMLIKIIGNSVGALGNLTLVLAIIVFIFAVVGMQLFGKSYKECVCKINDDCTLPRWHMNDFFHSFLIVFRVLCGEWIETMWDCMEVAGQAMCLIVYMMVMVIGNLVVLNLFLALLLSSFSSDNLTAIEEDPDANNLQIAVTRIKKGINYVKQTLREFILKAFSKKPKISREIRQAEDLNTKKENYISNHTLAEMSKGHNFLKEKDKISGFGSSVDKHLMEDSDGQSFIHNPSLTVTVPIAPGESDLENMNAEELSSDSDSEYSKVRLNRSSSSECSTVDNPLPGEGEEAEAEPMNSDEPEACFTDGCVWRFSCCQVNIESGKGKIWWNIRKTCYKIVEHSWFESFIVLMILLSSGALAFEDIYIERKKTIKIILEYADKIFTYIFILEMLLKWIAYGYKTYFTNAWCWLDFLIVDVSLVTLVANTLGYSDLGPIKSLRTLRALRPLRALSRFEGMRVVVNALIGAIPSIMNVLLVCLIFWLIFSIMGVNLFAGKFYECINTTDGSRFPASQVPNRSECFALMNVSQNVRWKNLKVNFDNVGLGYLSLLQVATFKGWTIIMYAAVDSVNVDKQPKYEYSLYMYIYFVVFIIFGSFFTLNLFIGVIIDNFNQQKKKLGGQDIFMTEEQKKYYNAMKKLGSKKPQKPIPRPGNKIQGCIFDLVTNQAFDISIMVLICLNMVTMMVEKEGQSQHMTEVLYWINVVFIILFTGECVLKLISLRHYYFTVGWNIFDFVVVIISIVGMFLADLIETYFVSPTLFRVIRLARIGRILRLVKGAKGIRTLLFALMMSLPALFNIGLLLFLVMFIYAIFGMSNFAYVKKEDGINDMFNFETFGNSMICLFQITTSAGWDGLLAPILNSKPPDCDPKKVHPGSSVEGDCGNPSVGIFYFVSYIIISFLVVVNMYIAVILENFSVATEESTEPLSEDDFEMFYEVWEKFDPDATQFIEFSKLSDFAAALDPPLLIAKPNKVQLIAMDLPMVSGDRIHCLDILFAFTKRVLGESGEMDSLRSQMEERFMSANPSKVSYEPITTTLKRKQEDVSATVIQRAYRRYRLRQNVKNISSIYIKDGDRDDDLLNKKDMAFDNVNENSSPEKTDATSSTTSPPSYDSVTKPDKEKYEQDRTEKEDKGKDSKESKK

Legend:
[1] = target: Transient receptor potential cation channel subfamily V member 1 (Homo sapiens) (UniProt Q8NER1); assay: Inhibition of TRPV1 (unknown origin) upto 100 uM
[2] = target: Transient receptor potential cation channel subfamily V member 4 (Homo sapiens) (UniProt Q9HBA0); assay: Inhibition of TRPV4 (unknown origin) upto 100 uM
[3] = target: Transient receptor potential cation channel subfamily A member 1 (Homo sapiens) (UniProt O75762); assay: Inhibition of TRPA1 (unknown origin) upto 100 uM
[4] = target: Sodium channel protein type 9 subunit alpha (Homo sapiens) (UniProt Q15858); assay: Inhibition of Nav1.7 (unknown origin)

inhibition [1]: inactive | inhibition [2]: inactive | inhibition [3]: inactive | inhibition [4]: inactive
SMILES: O=C(c1sc(-c2cccc(F)c2)nc1O)N1CCCO1
